Reference: PMC11274511, “Synthesis of Substituted 1,2,4-Triazole-3-Thione Nucleosides Using E. coli Purine Nucleoside Phosphorylase” (Biomolecules, 2024)

System: HSV-1/L2(TK+)
Conditions: Strain HSV-1/L2(TK+)
Method: Herpes simplex virus type 1 (HSV-1) strain L2 was obtained from the State’s collection of viruses at FSBI «N. F. Gamaleya National Research Centre for Epidemiology and Microbiology, Russian Ministry of Health, Russia» («D. I. Ivanovsky Institute of Virology» subdivision).
Antiviral activity in vitro was measured by the method of the cytopathic effect (CPE) inhibition assay. In 96-well plastic plates with the 24 h generated cell monolayer, 2-fold serial dilutions of the compounds were prepared. Cells infected with MOI of 0.1 PFU/cell were incubated at 37 °C in 5% CO2 atmosphere. […] Antiviral activity was assessed by determining of IC50 and IC95.
Three controls were used: (1) Toxicity control. Uninfected cells were incubated in the presence of the drug in the same concentration range as in the experiment. (2) Virus control. […] (3) Cell control. Uninfected cell cultures were incubated in the maintenance medium, which contained no drug.

NC(=O)c1ncn([C@@H]2O[C@H](CO)[C@@H](O)[C@H]2O)n1 [Ribavirin, reference compound]
SI (ratio of CC50 to IC50): >4
